Measured values published in PubChem BioAssay AID602289 (National Center for Advancing Translational Sciences (NCATS), 2012).
This is a selection; strong and weak results do not stand in their true shares. Active and inactive are the calls of the source.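 Rule for the calls: active = inhibition at or above 60%; inconclusive = inhibition from 0% up to below 60%; inactive = no inhibition observed.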

Assay: qHTS Assay for Small Molecule Inhibitors of Mitochondrial Division or Activators of Mitochondrial Fusion: Hit Validation in Malachite Green Assay;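 note: plate controls were DMSO wells with GTPase for no effect and protein-free buffer wells for full effect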
Details: purified GTPase, malachite green phosphate release, A650; hits give high values
From the text: The budding yeast S. cerevisiae is a powerful system to study mitochondrial fusion. Unlike other organisms, yeast cells without functional mitochondrial DNA (mtDNA) can be propagated and studied as long as they maintain a mitochondrial compartment and are provided with a fermentable carbon source. When mitochondrial fusion is blocked in yeast, mitochondrial tubules rapidly fragment and division continues unopposed. Under conditions where fusion is compromised in mammalian cells, nearly identical changes in mitochondrial structure have been observed. Thus, these findings indicate that steady state mitochondrial structure in cells is a characteristic and specific indicator of fusion activity. Mounting evidence has pointed to a connection between mitochondrial dynamics and apoptosis in mammalian cells. These studies indicate that in mammalian cells mitochondrial dynamics are more integrated into cellular processes than in yeast cells and have evolved not only to distribute the organelle but also to aid in the regulation of cellular homeostasis. Mitochondrial fusion proteins attenuate apoptosis by inhibiting the release of cytochrome c from mitochondria, in part by controlling cristae structures. […]

| Compound | inhibition |
| --- | --- |
| O=[N+]([O-])c1cc([N+](=O)[O-])c(-c2ccn[nH]2)s1 | active: 98.7% |
